{"source": "patent US6709873B1", "about": "“Method for production of antibodies to specific sites of rapamycin” (Isodiagnostika Inc., priority 1997, dated 2004)", "key": {"[1]": {"tested_on": "Rabbit #1 polyclonal antibody (Rapa-42-DVS-KLH immunogen)", "assay": "Inhibition ELISA of rabbit #1 polyclonal serum", "assay_type": "binding", "conditions": "Rapa antigen coated ELISA plate", "procedure": "(§1) Inhibition ELISA Protocol\n(§2) 1. Use Falcon® Pro-bind™ inununoplates.\n(§3) 2. Dilute coating antigen to 1 μg/mL in carbonate-bicarbonate buffer.\n(§4) Add 100 μL per well and incubate overnight at 4° C.\n(§5) 3. On the same day prepare inhibiting antigen tubes. Aliquot antibodies into glass test tubes. Prepare appropriate antigen concentration in ethanol and add to aliquoted antibody at 10 μL ethanol solution/250 μL antibody.\n(§6) Vortex tubes and incubate overnight at 4° C.\n(§7) 4. Shake out wells and wash 3× with 200 μL PBS/0.05% TWEEN™ (polyoxyethylene-sorbitol) (v/v) per well.\n(§8) 5. Add 200 μL blocking buffer per well (PBS/2% BSA (w/v)).\n(§9) Incubate 60 min at room temperature.\n(§10) 7. Transfer contents of inhibition tubes to antigen-coated plate, 100 μL per well. Incubate 60 min at 37° C.\n(§11) 9. […] Add 100 μL per well and incubate at 37° C. for 60 min.\n(§12) 11. […] Add 100 μL per well and incubate in the dark at room temperature. Absorbance can be read at 405 nm at approximately 15-min intervals."}, "[2]": {"tested_on": "Chicken polyclonal antibody (IgY, Rapa-42-DVS-KLH immunogen)", "assay": "Inhibition ELISA of chicken IgY prep", "assay_type": "binding", "conditions": "Rapa antigen coated ELISA plate", "procedure": "as §1, §2, §3, §4, §5, §6, §7, §8, §9, §10, §11, §12"}, "[3]": {"tested_on": "Mouse polyclonal antibody Rapa-DVS #7", "assay": "Inhibition ELISA of mouse polyclonal serum Rapa-DVS #7", "assay_type": "binding", "procedure": "as §1, §2, §3, §4, §5, §6, §7, §8, §9, §10, §11, §12"}, "[4]": {"tested_on": "Mouse polyclonal antibody Rapa-DVS #9", "assay": "Inhibition ELISA of mouse polyclonal serum Rapa-DVS #9", "assay_type": "binding", "procedure": "as §1, §2, §3, §4, §5, §6, §7, §8, §9, §10, §11, §12"}, "[5]": {"tested_on": "MoAb R-1-1", "assay": "Inhibition ELISA of MoAb R-1-1", "assay_type": "binding, mouse", "conditions": "tissue culture supernatant", "procedure": "as §1, §2, §3, §4, §5, §6, §7, §8, §9, §10, §11, §12\n(§13) To further characterize the reactivity of monoclonal antibodies from various clones, inhibition ELISA were performed."}, "[6]": {"tested_on": "MoAb R-1-5", "assay": "Inhibition ELISA of MoAb R-1-5", "assay_type": "binding, mouse", "conditions": "tissue culture supernatant", "procedure": "as §1, §2, §3, §4, §5, §6, §7, §8, §9, §10, §11, §12, §13"}, "[7]": {"tested_on": "MoAb R-2-2", "assay": "Inhibition ELISA of MoAb R-2-2", "assay_type": "binding, mouse", "conditions": "tissue culture supernatant", "procedure": "as §1, §2, §3, §4, §5, §6, §7, §8, §9, §10, §11, §12, §13"}, "[8]": {"tested_on": "MoAb R-3-1", "assay": "Inhibition ELISA of MoAb R-3-1", "assay_type": "binding, mouse", "conditions": "tissue culture supernatant", "procedure": "as §1, §2, §3, §4, §5, §6, §7, §8, §9, §10, §11, §12, §13"}, "[9]": {"tested_on": "MoAb R-4-1", "assay": "Inhibition ELISA of MoAb R-4-1", "assay_type": "binding, mouse", "conditions": "tissue culture supernatant", "procedure": "as §1, §2, §3, §4, §5, §6, §7, §8, §9, §10, §11, §12"}, "[10]": {"tested_on": "MoAb R-4-7", "assay": "Inhibition ELISA of MoAb R-4-7", "assay_type": "binding, mouse", "conditions": "tissue culture supernatant", "procedure": "as §1, §2, §3, §4, §5, §6, §7, §8, §9, §10, §11, §12"}, "[11]": {"tested_on": "MoAb R-5-3", "assay": "Inhibition ELISA of MoAb R-5-3", "assay_type": "binding, mouse", "conditions": "tissue culture supernatant", "procedure": "as §1, §2, §3, §4, §5, §6, §7, §8, §9, §10, §11, §12"}, "[12]": {"tested_on": "Mouse polyclonal antibody Rapa-27 #12 (Rapa-27-ox-DVS-KLH immunogen)", "assay": "Inhibition ELISA of mouse polyclonal serum Rapa-27 #12", "conditions": "binding to Rapa-27-HSA", "procedure": "as §1, §2, §3, §4, §5, §6, §7, §8, §9, §10, §11, §12"}, "[13]": {"tested_on": "MoAb R-6-2", "assay": "Inhibition ELISA of MoAb R-6-2", "assay_type": "binding, mouse", "procedure": "as §1, §2, §3, §4, §5, §6, §7, §8, §9, §10, §11, §12"}, "[14]": {"tested_on": "MoAb R-6-3", "assay": "Inhibition ELISA of MoAb R-6-3", "assay_type": "binding, mouse", "procedure": "as §1, §2, §3, §4, §5, §6, §7, §8, §9, §10, §11, §12"}}}
{"substance": "human serum albumin [HSA]", "values": [{"measurement": "Percent inhibition of Rabbit #1 polyclonal antibody", "setting": "[1]", "result": 0, "unit": "%"}, {"measurement": "Percent inhibition of Chicken polyclonal antibody", "setting": "[2]", "result": 0, "unit": "%"}, {"measurement": "Percent inhibition of mouse polyclonal antibody Rapa-DVS #7", "setting": "[3]", "result": 6.8, "unit": "%"}, {"measurement": "Percent inhibition of mouse polyclonal antibody Rapa-DVS #9", "setting": "[4]", "result": 10.4, "unit": "%"}, {"measurement": "Percent inhibition of MoAb R-1-1", "setting": "[5]", "result": 2, "unit": "%"}, {"measurement": "Percent inhibition of MoAb R-1-5", "setting": "[6]", "result": 10, "unit": "%"}, {"measurement": "Percent inhibition of MoAb R-2-2", "setting": "[7]", "result": 16, "unit": "%"}, {"measurement": "Percent inhibition of MoAb R-3-1", "setting": "[8]", "result": 0, "unit": "%"}, {"measurement": "Percent inhibition of MoAb R-4-1", "setting": "[9]", "result": 2, "unit": "%"}, {"measurement": "Percent inhibition of MoAb R-4-7", "setting": "[10]", "result": 6, "unit": "%"}, {"measurement": "Percent inhibition of MoAb R-5-3", "setting": "[11]", "result": 13, "unit": "%"}, {"measurement": "Percent inhibition of mouse polyclonal antibody Rapa-27 #12", "setting": "[12]", "result": 0, "unit": "%"}, {"measurement": "Percent inhibition of MoAb R-6-2", "setting": "[13]", "result": 0, "unit": "%"}, {"measurement": "Percent inhibition of MoAb R-6-3", "setting": "[14]", "result": 0, "unit": "%"}]}
